{"source": "patent US11713331B2", "about": "“Benzene 1,4-bis(bisphosphonic acid)-based metal complexes, method of synthesis and applications thereof” (priority 2020, dated 2023)", "key": {"[1]": {"test_system": "normal osteoblast-like hFOB 1.19 cell line", "experimental": "(§1) Cell Culture Methods. Media with DMEM, 5% FBS, and 1% Pen-Strep were used to incubate MDA-MB-231 cells at 37° C. with 5% CO2. The osteoblast hFOB 1.19 cell line was incubated at 34° C., 5% CO2, in 1:1 DMEM:F-12 supplemented with 0.3 mg/mL G418, and 10% FBS. Cell passages were performed weekly at 80.0% confluency. Media exchanges were carried out twice every 7 d.\n(§2) Cell treatment. […] Cells (MDA-MB-231, hFOB 1.19) were seeded in 96 well plates at a density of 2.5×10^5 cells/mL. The 96 well plates were incubated at 37° C. with 5% CO2 for 24 h. Three 96 well plates were prepared per time point (24, 48, and 72 h). […] Cells were incubated at 37° C. and 5% CO2 for 24, 48, and 72 h. Control groups were treated with media (MDA-MB-231 with DMEM, 1% Pen-Strep) and (hFOB 1.19 with 1:1 DMEM:F-12, 0.3 mg/mL G418). Cell proliferation was determined after each point time of treatment. A 10% AlamarBlue® solution was previously prepared using PBS. The media was removed from all 96 well plates and 100 μL of AlamarBlue® solution was added. The 96 well plates were incubated for 4 h (MDA-MB-231 at 37° C., 5% CO2) and (hFOB 1.19 at 34° C., 5% CO2). The fluorescence was measured at 560 nm of excitation and lambda max 590 nm of emission. […] The experiments for the % RCL were performed employing the same conditions previously mentioned for the IC50 determination. All experiments were accomplished in triplicate. The GraphPad Prism 8 vs 8.3.1 was utilized to generate the IC50 curves and to plot the % RCL graphs.\n(§3) Furthermore, the cytotoxicity of these materials was also achieved using the osteoblast-like hFOB 1.19 cell line, within work, these immortalized human cells were used to simulate the human bone microenvironment (not cancerous cells). […] Control groups were treated with media (DMEM, 1% Pen-Strep, MDA-MB-231) and (1:1 DMEM:F12, 0.3 mg/mL G418, hFOB 1.19), respectively. AlamarBlue® assay was employed to determine cell proliferation after each time point.\nas §1, with “Methods—Media” for “Methods. Media”, “CO2” for “CO2,”\n(§4) Cell seeding—Both cells were seeded in 96 well plates at a density of 2.5×10^5 cells/mL. The 96 well plates were incubated at 37° C. (MDA-MB-231) and 34° C. […] Experiments were performed in triplicate.\n(§5) (MDA-MB-231) and 34° C. […] All experiments were accomplished in triplicate."}, "[2]": {"test_system": "human breast cancer MDA-MB-231 cell line", "experimental": "as §1, §2, §3\nas §1, with “Methods—Media” for “Methods. Media”, “CO2” for “CO2,”\nas §4, §5"}, "[3]": {"assay": "Dissolution profile in fasted-state simulated gastric fluid (release of BBPA)", "type": "physicochemical", "conditions": "FaSSGF pH 1.60, 37° C."}, "[4]": {"assay": "Binding assay to hydroxyapatite (HA)", "conditions": "0.5 mg/mL, 20 mg HA, PBS", "experimental": "Hydroxyapatite (HA) treatment. […] The experiment was carried out for 0-12 days, in stirring at 120 rpm. […] The supernatant was centrifuged for 8 min (500 rcf) and the absorbance was measured at 231 nm. Solid samples were characterized by SEM-EDS, TGA, and PXRD.\nA suspension of HA in PBS and a solution of BBPA in PBS (without HA) were employed as control groups. […] The binding curves of these materials were contrasted with the one before reported for Alendronic acid (ALEN).\nThe experiment was carried out for 0-12 days, in constant stirring at 120 rpm. […] The supernatant was centrifuged for 8 min (500 rcf) and the absorbance was measured at 231 nm. Solid samples were characterized by SEM-EDS and PXRD."}, "[5]": {"assay": "Dissolution profile in phosphate-buffered saline (release of BBPA)", "type": "physicochemical", "conditions": "PBS pH 7.40, 37° C."}, "[6]": {"conditions": "150 rpm, 0 h (aliquot before addition)"}}, "note": "Where “and” joins values, the source holds several entries; their conditions need not be identical. Equal entries are not always repeated. Entries after “also recorded” stand apart in the source; their conditions may differ. Where two headings read alike, the source gives them in different places.", "data": [{"substance": "benzene 1,4-bis(bisphosphonic acid) [BBPA]", "values": [{"measurement": "cytotoxicity (in words)", "setting": "[1]; hFOB 1.19, 0-200 μM", "value": "no cytotoxic; also recorded: No cytotoxicity effect was observed"}, {"measurement": "relative cell live (% RCL)", "setting": "[1]; hFOB 1.19, 0-200 μM, at each measured time (24, 48, 72 h)", "value": "> 90", "unit": "%"}, {"measurement": "cytotoxicity (in words)", "setting": "[1]; hFOB 1.19, 1.9-15 μM, 24-72 h", "value": "no significant cell death"}, {"measurement": "cytotoxicity (in words)", "setting": "[2]; MDA-MB-231, 0-200 μM", "value": "no cytotoxic; also recorded: No cytotoxicity effect was observed"}, {"measurement": "relative cell live (% RCL)", "setting": "[2]; MDA-MB-231, 0-200 μM, at each measured time (24, 48, 72 h)", "value": "> 90", "unit": "%"}, {"measurement": "cytotoxicity (in words)", "setting": "[2]; MDA-MB-231, 1.9-15 μM, 24-72 h", "value": "no significant cell death"}, {"measurement": "% Released (BBPA)", "setting": "[3]; [6]", "value": 0, "unit": "%"}, {"measurement": "% Released (BBPA)", "setting": "[3]; 0.25 h", "value": 86, "unit": "%"}, {"measurement": "% Released (BBPA)", "setting": "[3]; 0.5 h", "value": 87, "unit": "%"}, {"measurement": "% Released (BBPA)", "setting": "[3]; 1 h", "value": 88.6, "unit": "%"}, {"measurement": "% Released (BBPA)", "setting": "[3]; 3 h", "value": 93, "unit": "%"}, {"measurement": "% Released (BBPA)", "setting": "[3]; 5 h", "value": "100% and 94%"}, {"measurement": "% Released (BBPA)", "setting": "[3]; 24 h", "value": 98, "unit": "%"}, {"measurement": "% Released (BBPA)", "setting": "[3]; 48 h", "value": 98, "unit": "%"}, {"measurement": "% Binding to HA", "setting": "[4]; 7 d", "value": "> 95% and 96%"}, {"measurement": "% Binding to HA", "setting": "[4]; 8 d", "value": 97, "unit": "%"}, {"measurement": "% Binding to HA", "setting": "[4]; 9 d", "value": 98, "unit": "%"}, {"measurement": "% Binding to HA", "setting": "[4]; 11 d", "value": 100, "unit": "%"}, {"measurement": "% Binding to HA", "setting": "[4]; 12 d", "value": 100, "unit": "%"}, {"measurement": "% Released (BBPA)", "setting": "[5]; [6]", "value": 0, "unit": "%"}, {"measurement": "% Released (BBPA)", "setting": "[5]; 0.25 h", "value": 95, "unit": "%"}, {"measurement": "% Released (BBPA)", "setting": "[5]; 0.5 h", "value": 95, "unit": "%"}, {"measurement": "% Released (BBPA)", "setting": "[5]; 1 h", "value": 96, "unit": "%"}, {"measurement": "% Released (BBPA)", "setting": "[5]; 3 h", "value": 98, "unit": "%"}, {"measurement": "% Released (BBPA)", "setting": "[5]; 5 h", "value": "100% and 98%"}, {"measurement": "% Released (BBPA)", "setting": "[5]; 24 h", "value": 98, "unit": "%"}, {"measurement": "% Released (BBPA)", "setting": "[5]; 48 h", "value": 100, "unit": "%"}, {"measurement": "% Released (BBPA)", "setting": "[5]; 72 h", "value": 100, "unit": "%"}]}]}
